This note sets out measurements from ChEMBL document CHEMBL4311981, “Synthesis, anticancer activity, and molecular modeling of 1,4-naphthoquinones that inhibit MKK7 and Cdc25” (Eur J Med Chem, 2019).

The experiment addresses T1, M-phase inducer phosphatase 2 (Homo sapiens, UniProt P30305).
T1 sequence (P30305 whole entry): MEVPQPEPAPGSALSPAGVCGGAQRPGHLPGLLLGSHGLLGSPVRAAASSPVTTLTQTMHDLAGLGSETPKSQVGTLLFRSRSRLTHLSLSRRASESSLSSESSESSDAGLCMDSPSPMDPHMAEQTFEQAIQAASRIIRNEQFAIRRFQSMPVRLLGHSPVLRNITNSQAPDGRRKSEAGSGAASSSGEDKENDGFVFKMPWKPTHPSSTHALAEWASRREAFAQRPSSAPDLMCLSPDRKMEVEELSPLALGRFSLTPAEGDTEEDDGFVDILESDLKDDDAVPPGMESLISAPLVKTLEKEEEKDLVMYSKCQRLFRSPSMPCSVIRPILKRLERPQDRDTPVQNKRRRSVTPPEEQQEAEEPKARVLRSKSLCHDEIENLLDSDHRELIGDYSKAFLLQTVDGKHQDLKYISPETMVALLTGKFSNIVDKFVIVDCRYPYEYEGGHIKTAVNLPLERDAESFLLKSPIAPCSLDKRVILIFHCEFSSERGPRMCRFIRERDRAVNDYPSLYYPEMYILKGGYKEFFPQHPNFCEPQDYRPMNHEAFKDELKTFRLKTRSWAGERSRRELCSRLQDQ

For `CC1=CC(=O)c2c(O)cccc2C1=O` [PLUMBAGIN], the IC50 – broadly, the point on the concentration scale where inhibition reaches its midpoint – was found to be 3.1 µM. That is a single-digit micromolar value.
